In patent US20160083400A1, “TRICYCLIC GUANIDINE DERIVATIVE” (Sunovion Pharmaceuticals Inc., priority 2014, published 2016) one finds IC50 data, which are given here for 7 compounds.

Amino acid sequences for entries named in this document (tags omitted).
UniProt Q14123, whole entry: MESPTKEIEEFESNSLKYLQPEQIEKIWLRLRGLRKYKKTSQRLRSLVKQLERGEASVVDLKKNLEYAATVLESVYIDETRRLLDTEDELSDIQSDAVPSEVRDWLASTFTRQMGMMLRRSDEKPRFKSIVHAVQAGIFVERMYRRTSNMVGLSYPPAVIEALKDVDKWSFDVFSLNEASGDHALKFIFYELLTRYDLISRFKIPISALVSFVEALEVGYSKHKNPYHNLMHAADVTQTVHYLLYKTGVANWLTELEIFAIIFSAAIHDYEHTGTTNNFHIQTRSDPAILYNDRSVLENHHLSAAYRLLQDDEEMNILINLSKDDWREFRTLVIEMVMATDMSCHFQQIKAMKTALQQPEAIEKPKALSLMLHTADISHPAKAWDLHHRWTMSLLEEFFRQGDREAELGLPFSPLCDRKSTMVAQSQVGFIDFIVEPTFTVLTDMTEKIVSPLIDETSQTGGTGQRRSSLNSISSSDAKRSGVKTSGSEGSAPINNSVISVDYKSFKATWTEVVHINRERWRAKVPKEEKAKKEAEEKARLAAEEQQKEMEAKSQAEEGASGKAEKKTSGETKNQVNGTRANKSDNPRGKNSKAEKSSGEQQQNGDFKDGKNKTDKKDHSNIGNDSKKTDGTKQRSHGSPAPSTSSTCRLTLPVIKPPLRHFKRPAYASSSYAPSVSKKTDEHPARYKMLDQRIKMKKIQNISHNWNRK
UniProt P54750, whole entry: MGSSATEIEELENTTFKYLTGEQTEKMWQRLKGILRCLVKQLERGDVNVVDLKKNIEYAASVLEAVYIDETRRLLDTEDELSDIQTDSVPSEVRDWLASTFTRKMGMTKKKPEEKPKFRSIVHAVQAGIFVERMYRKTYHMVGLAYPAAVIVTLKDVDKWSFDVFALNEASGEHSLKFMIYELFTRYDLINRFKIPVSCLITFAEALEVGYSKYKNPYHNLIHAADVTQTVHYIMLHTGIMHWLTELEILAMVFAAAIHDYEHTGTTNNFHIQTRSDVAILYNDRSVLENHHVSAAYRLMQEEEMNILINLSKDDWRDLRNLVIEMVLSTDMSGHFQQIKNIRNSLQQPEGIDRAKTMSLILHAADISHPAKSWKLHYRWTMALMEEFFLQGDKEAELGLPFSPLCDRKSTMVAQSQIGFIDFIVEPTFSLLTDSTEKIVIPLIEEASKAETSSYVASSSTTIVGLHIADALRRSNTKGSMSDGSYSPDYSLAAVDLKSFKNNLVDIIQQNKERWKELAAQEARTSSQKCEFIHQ
UniProt Q01064, whole entry: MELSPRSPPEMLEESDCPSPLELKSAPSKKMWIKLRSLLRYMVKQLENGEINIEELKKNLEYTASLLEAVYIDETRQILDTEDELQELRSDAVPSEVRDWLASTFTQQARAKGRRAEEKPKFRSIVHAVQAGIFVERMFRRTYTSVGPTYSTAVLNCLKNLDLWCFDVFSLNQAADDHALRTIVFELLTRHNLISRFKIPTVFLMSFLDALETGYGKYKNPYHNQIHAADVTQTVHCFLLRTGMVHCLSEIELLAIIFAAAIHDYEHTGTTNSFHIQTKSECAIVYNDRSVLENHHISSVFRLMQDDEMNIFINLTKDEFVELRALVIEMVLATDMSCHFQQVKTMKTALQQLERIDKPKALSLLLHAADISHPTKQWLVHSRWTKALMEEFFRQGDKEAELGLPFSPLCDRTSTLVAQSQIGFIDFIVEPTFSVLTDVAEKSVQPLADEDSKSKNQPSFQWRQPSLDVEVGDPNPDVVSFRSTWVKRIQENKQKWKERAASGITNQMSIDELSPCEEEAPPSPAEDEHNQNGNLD

The structures appear in SMILES notation. Some results are limits rather than exact numbers.

What is called IC50 is the concentration at which inhibition is half-maximal.

Assay [1] addresses PDE1C (Homo sapiens, UniProt Q14123). Put plainly: In vitro HTRF PDE1 inhibition assay (PDE1C). The text has this:
(§1) An exemplary procedure for the in vitro Homogenous Time Resolved Fluorescence (HTRF) assay, which can be used to determine the inhibitory action of compounds of the invention toward PDE1 or its isoforms, follows.
(§2) The HTRF PDE1 assay utilized the HTRF technology, which is based on the competition between unlabeled cyclic nucleotide and cyclic nucleotide labeled with XL665 for the binding to cyclic nucleotide-specific antibody labeled with cryptate. The HTRF signal is thus inversely proportional to the concentration of cyclic nucleotide being measured. Since phosphodiesterases break down cyclic nucleotides the HTRF signal was used to determine PDE activity.
(§3) The Cisbio cGMP HTRF assay kit (Cat no: 62GM2PEC) was utilized. Cyclic GMP was diluted to 200 nM in HTRF assay buffer (1 mM CaCl2, 10 mM MgCl2, 10 mM Tris-HCl, 0.1% BSA, pH7.4). 10 μl of compound or DMSO was diluted in 200 nM cyclic GMP solution and added to wells of a 96 well white plate to give 100 nM cyclic GMP in 1% DMSO final concentration. PDE (1A3, 1B or 1C) was diluted to 2× working concentration in HTRF assay buffer with 4 μg/ml Calmodulin, and 10 μl was added to initiate the reaction. The plate was then incubated for 45 minutes at 37° C. d2-Labelled cyclic GMP and anti-cGMP cryptate were diluted in 50 mM phosphate buffer, 0.8M KF, 1% Triton X100, 0.2% BSA, pH7.0. Following incubation 10 μl d2-cGMP, then 10 μl anti cGMP cryptate were added to each well and the plate was incubated for 45 minutes at rt. The plate was then read on Perkin Elmer Victor at 2 different FRET readings ex/emm 340 nm/665 nm and 340 nm/615 nm.
(§4) Compounds having an IC50 of <1 μM, are denoted as +++. Compounds having an IC50 of 1-10 μM, are denoted as ++. Compounds having an IC50 of 10-100 μM, are denoted as +.
For orientation: Time-resolved FRET reads energy transfer from a long-lived donor to a nearby acceptor.

In assay [2] the target is PDE1A (PDE 1A3) (Homo sapiens, UniProt P54750). The assay can be described thus: In vitro HTRF PDE1 inhibition assay (PDE1A). To be noted: read-out: IC50 (μM), in vitro PDE1A HTRF Assay; PDE1A (1A3); 100 nM cyclic GMP, calmodulin, 45 minutes at 37° C.
Description: as §1, §2, §3, §4

The target of assay [3] is PDE1B (Homo sapiens, UniProt Q01064). Put plainly: In vitro HTRF PDE1 inhibition assay (PDE1B). To be noted: read-out: IC50 (μM), in vitro PDE1B HTRF Assay, 100 nM cyclic GMP, calmodulin, 45 minutes at 37° C.

In the case of `O=c1c2cnc(C3CCOCC3)n2nc2n1CC(c1ccc(Cl)cc1F)N2` (single isomer, unassigned), the IC50 was < 1000 nM in assay [1], < 1 µM in assay [2] and < 1 µM in assay [3].

`CC(C)c1ccc(C2Cn3c(nn4c(C(C)C)ncc4c3=O)N2)nc1` (single isomer, unassigned) [202]: the IC50 in assay [1] was < 1000 nM; in assay [2], < 1 µM; in assay [3], < 1 µM.

For the compound `CC(C)c1nccc2c(=O)n3c(nc12)NCCC3c1ccc(Cl)cc1` (stereo not drawn), the figures for the 50% inhibitory concentration (IC50) in assay [1], in assay [2] and in assay [3] were < 1000 nM, < 1 µM and < 1 µM, respectively.

On to `Cc1ccc(C2Cn3c(nn4c(C5CCOCC5)ncc4c3=O)N2)c(F)c1` (single isomer, unassigned), for which the values for the IC50 in assay [1], in assay [2] and in assay [3] were < 1000 nM, < 1 µM and < 1 µM, respectively.

In the case of `CC(C)c1ncc2c(=O)n3c(nn12)N[C@@H](c1ccc(C(C)(C)C)nc1)C3`, the IC50 was < 1000 nM in assay [1], < 1 µM in assay [2] and < 1 µM in assay [3].

For `CC(C)n1ncc2c(=O)n3c(nc21)NC(c1ccc(Cl)cc1)CC3` (stereo not drawn), the values for the IC50 in assay [1], in assay [2] and in assay [3] were 1000 to 10000 nM, < 1 µM and < 1 µM, respectively.

With `CC(C)c1ncc2c(=O)n3c(nn12)NC(c1ccc(Cl)cn1)C3` (stereo not drawn), the values for the IC50 in assay [1], in assay [2] and in assay [3] were 1000 to 10000 nM, < 1 µM and < 1 µM, respectively.
